Results on one molecule are retold here after patent publication US20240316047A1, “INHIBITORS OF RNA HELICASE DHX9 AND USES THEREOF” (ACCENT THERAPEUTICS, INC., priority 2022, published 2024).

The assay has as its system circBRIP1 in HCT116 cells. Kind of assay: DHX9 circBRIP1 cellular target engagement TaqMan multiplex assay. In kind it is cell-based. As to conditions: read-out: DHX9 Cellular Target Engagement. (In general: In qPCR the cycle at which signal appears reflects the starting amount.)

As for `CC(C)N1CC(Oc2cnc(-c3cc(C(=O)Nc4cc(Cl)cc(NS(C)(=O)=O)c4)cn3CC(F)(F)F)nc2)C1`, the EC50 turned out to be 0.121 µM.
